Measured affinities in a library of Ab-14 heavy chain variants

Reference: Engelhart et al. 2022, doi:10.1038/s41597-022-01779-4. File: FLAb, binding data.

The target is the same throughout: PDVDLGDISGINAS, from the HR2 region of SARS-CoV-2 spike.

Parent: Ab-14, a human scFv built as VH, the linker GGGGSGGGGSGGGGS, VL. Only the CDRs of the heavy chain vary.
VH: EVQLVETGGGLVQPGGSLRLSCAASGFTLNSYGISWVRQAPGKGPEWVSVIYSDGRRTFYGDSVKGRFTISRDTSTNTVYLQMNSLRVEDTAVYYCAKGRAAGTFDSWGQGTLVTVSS
VL: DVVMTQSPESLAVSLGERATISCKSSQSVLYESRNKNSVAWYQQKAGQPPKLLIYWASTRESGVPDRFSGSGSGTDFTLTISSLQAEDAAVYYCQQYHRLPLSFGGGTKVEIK

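The starting antibody came from a phage panning campaign against this peptide. Variants in AAYL49 differ from the parent at up to three CDR positions; double and triple changes were sampled at random. AlphaSeq pools MATa yeast showing the antibodies with MATalpha yeast showing the peptide. Mating (16 h, 30 °C) was followed by selection of diploids and sequencing of their barcodes. Read counts were normalised to the haploid input and turned into Kd by a linear fit to BCL2-family pairs of known affinity, for each replicate. The assay was run in three technical replicates.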

Variants are written as CDR1, CDR2 and CDR3 of the heavy chain (limits as in the source). Parent: GFTLNSYGIS, VIYSDGRRTFYGDSVK, GRAAGTFDS.
Every variant below is changed at G99 of the VH (sequential numbering).
The Kd shown is the geometric mean over detected replicates; a lower Kd is a better binder.
A pair that was not seen in any replicate is written "nd"; this usually means weak binding, but a binder can also be missed.
Entries are sorted by rising average, undetected variants last.
In this assay the parent's reference entry averaged 4.4 nM; its copy inside this library read 13 µM (one replicate of three).

For GFTLNSYGIS | VIYSDGRRTFYGDSVK | LRAAGTFDS, the assay gave 3.7 nM (3 of 3 replicates; controls 0 of 9). For GFTLNSYGIS | VIYSDGRRTFYGDSVK | YRAAKSFDS, the assay gave 4.9 nM (3 of 3 replicates; controls 1 of 9). With EFSLNSYGIS | VIYSDGRRTFYGDSVK | IRAAGTFDS the result was 60 nM (3 of 3 replicates; controls 0 of 9). The variant SFTLNSYGIS | VIYSDGRRTFYGDSVK | RRVAGTFDS gave 130 nM (3 of 3 replicates; controls 7 of 9). With GFTLNSAGIS | VIYSDGRRSFYGDSVK | ARAAGTFDS the result was 180 nM (1 of 3 replicates; controls 0 of 9). For GFTLNSYGIS | VIYSDGRRTFYGDSVK | IRAANMFDS, the assay gave 570 nM (3 of 3 replicates; controls 1 of 9). The variant GFTLVSYGIS | VIYSDGRRTFYGDSVK | FRAAGTMDS showed 2.2 µM (1 of 3 replicates; controls 3 of 9).

The variant GFTLNSYGIS | VIYSDGRRTFWGWSVK | NRAAGTFDS showed 2.4 µM (1 of 3 replicates; controls 1 of 9). With GFTLNSGGIS | VIYSDGRRTFYGDSVK | YRAAGVFDS the result was 2.5 µM (1 of 3 replicates; controls 2 of 9). The variant GFTLNSYGIS | VIYSDGRRTFYGDSTK | TRAAWTFDS showed 2.9 µM (3 of 3 replicates; controls 3 of 9). The variant GFTLNSYGIS | VRYSDGRRTFYGDSVP | WRAAGTFDS gave 4.0 µM (1 of 3 replicates; controls 1 of 9). The variant GFTLNSYGIS | VIYSDGRGTFYGDSIK | RRAAGTFDS showed 6.0 µM (1 of 3 replicates; controls 0 of 9). With GFTLDSYRIS | VIYSDGRRTFYGDSVK | ARAAGTFDS the result was 11 µM (1 of 3 replicates; controls 5 of 9). The variant GFTLNSYGIS | VFYSDGNRTFYGDSVK | VRAAGTFDS showed 12 µM (1 of 3 replicates; controls 4 of 9).

The variant GFTLNSYGIS | VIYSDGRRTLYGDSVK | QRMAGTFDS showed 20 µM (2 of 3 replicates; controls 3 of 9). For GFGLNSYGIS | VIYSDGRRTFYGDGVK | YRAAGTFDS, the assay gave 38 µM (3 of 3 replicates; controls 4 of 9). With GFTLNSYGIP | VIYSDGRRTFYGDSVK | IRAAGAFDS the result was 42 µM (1 of 3 replicates; controls 2 of 9). With GFTLNSYGIS | VIYSDFRRTAYGDSVK | TRAAGTFDS the result was 50 µM (3 of 3 replicates; controls 6 of 9). With GFTLNSYVIS | VIYSDGRRTFYGDSKK | SRAAGTFDS the result was 57 µM (2 of 3 replicates; controls 7 of 9). For GFTLNSYGIS | VIYCDGRRTFYGDSVK | KRAAGTFDS, the assay gave 78 µM (1 of 3 replicates; controls 1 of 9). The variant GFTLNSYGIS | VIYSDGRRTFYGDTVK | TRLAGTFDS gave 190 µM (2 of 3 replicates; controls 3 of 9).

The variant GFTLNSYGIS | VIYSDGRRTFYGDSKK | PRAAGTFVS gave 200 µM (2 of 3 replicates; controls 2 of 9). The variant GFTLNSYGIS | VIYSDGRRTFYVDSHK | LRAAGTFDS gave 450 µM (1 of 3 replicates; controls 7 of 9). The variant GFTLNDYGIS | VIYSDGRRTFYGDSAK | DRAAGTFDS gave nd (0 of 3 replicates; controls 2 of 9). The variant GFTLNYYGIS | VIYSDGRRTFAGDSVK | DRAAGTFDS gave nd (0 of 3 replicates; controls 0 of 9). For GFTLNSYGIS | VIYSDGRRTFYGLSVK | LRAAGNFDS, the assay gave nd (0 of 3 replicates; controls 0 of 9). The variant GFTLDSYGIS | VIYSDGRRTFYGGSVK | KRAAGTFDS showed nd (0 of 3 replicates; controls 0 of 9). With GFTLNSYGIS | VIYSDLRYTFYGDSVK | FRAAGTFDS the result was nd (0 of 3 replicates; controls 0 of 9).

For GFTLNSYGIS | VIYVDGRRTFYGDSVK | RRAAGTYDS, the assay gave nd (0 of 3 replicates; controls 0 of 9). With GFTLNSYGIV | VIYSDGRRTFYGDSVK | LYAAGTFDS the result was nd (0 of 3 replicates; controls 0 of 9). With GFTLTSYGIS | VIFSDGRRTFYGDSVK | HRAAGTFDS the result was nd (0 of 3 replicates; controls 0 of 9). The variant GFTLNSYGIS | VIYSDGRRTFYEDSVK | WRAAGTKDS gave nd (0 of 3 replicates; controls 0 of 9). The variant GFTKNFYGIS | VIYSDGRRTFYGDSVK | WRAAGTFDS gave nd (0 of 3 replicates; controls 0 of 9). The variant GFFLNSYGIS | VIYSDGRRMFYGDSVK | DRAAGTFDS gave nd (0 of 3 replicates; controls 0 of 9). For GFTLNSSGIS | VIYSDGRRTFYGDIVK | ARAAGTFDS, the assay gave nd (0 of 3 replicates; controls 0 of 9).

The variant GFTLNSHGIS | VIYSDGRRTFKGDSVK | HRAAGTFDS showed nd (0 of 3 replicates; controls 1 of 9). With GFTLNSYGIS | VIYSDGRSTFEGDSVK | QRAAGTFDS the result was nd (0 of 3 replicates; controls 1 of 9). The variant GFTLNSYGIS | HIYSDGRRTFYGDSVK | CRAAGTFDS gave nd (0 of 3 replicates; controls 0 of 9). For GFTLNSYGIS | VIYSDGRRTFYGDNIK | LRAAGTFDS, the assay gave nd (0 of 3 replicates; controls 0 of 9). The variant GFTLNSYGIS | VIYSDGRWTFYGDSVK | LRAAGTFDS gave nd (0 of 3 replicates; controls 0 of 9). The variant GFTLNSYGIS | EIYSDGRRTFYGRSVK | ERAAGTFDS showed nd (0 of 3 replicates; controls 1 of 9). For GFTLFSYGIS | VIYSDGRRDFYGDSVK | ERAAGTFDS, the assay gave nd (0 of 3 replicates; controls 1 of 9).

With GFTLNDYGIS | VIYEDGRRTFYGDSVK | LRAAGTFDS the result was nd (0 of 3 replicates; controls 0 of 9). The variant GFTLNSYGIS | VIVSDGRYTFYGDSVK | QRAAGTFDS showed nd (0 of 3 replicates; controls 0 of 9). The variant GFTLNSYLIS | VIYSDGRRTFYGDSVK | MRASGTFDS gave nd (0 of 3 replicates; controls 0 of 9). For GFTLNSYLIS | VIYSDGRRTFYVDSVK | RRAAGTFDS, the assay gave nd (0 of 3 replicates; controls 1 of 9). With GFTLNSYGIS | VIRSDGRRDFYGDSVK | ARAAGTFDS the result was nd (0 of 3 replicates; controls 1 of 9).

Repeated from above, the 5 best binders with a signal in all replicates:

For GFTLNSYGIS | VIYSDGRRTFYGDSVK | LRAAGTFDS, the assay gave 3.7 nM (3 of 3 replicates; controls 0 of 9).
For GFTLNSYGIS | VIYSDGRRTFYGDSVK | YRAAKSFDS, the assay gave 4.9 nM (3 of 3 replicates; controls 1 of 9).
For EFSLNSYGIS | VIYSDGRRTFYGDSVK | IRAAGTFDS, the assay gave 60 nM (3 of 3 replicates; controls 0 of 9).
For SFTLNSYGIS | VIYSDGRRTFYGDSVK | RRVAGTFDS, the assay gave 130 nM (3 of 3 replicates; controls 7 of 9).
For GFTLNSYGIS | VIYSDGRRTFYGDSVK | IRAANMFDS, the assay gave 570 nM (3 of 3 replicates; controls 1 of 9).

Three control strains display no target. For library AAYL49, 15% of the pairings with them gave a signal, with a median of 11 µM and one signal in twenty below 680 nM, so weak values seen in few replicates may be background. Also given: how often the same scFv was detected with the empty control strains.